Assay results published in BindingDB's records for PubMed 1646322 (Mayo Clinic, 1991).

By UniProt entry, the sequences of proteins in these tests, tags left out. Where a name states a change or a piece, a line headed by the entry shows the natural chain unless it says otherwise.
UniProt P08482: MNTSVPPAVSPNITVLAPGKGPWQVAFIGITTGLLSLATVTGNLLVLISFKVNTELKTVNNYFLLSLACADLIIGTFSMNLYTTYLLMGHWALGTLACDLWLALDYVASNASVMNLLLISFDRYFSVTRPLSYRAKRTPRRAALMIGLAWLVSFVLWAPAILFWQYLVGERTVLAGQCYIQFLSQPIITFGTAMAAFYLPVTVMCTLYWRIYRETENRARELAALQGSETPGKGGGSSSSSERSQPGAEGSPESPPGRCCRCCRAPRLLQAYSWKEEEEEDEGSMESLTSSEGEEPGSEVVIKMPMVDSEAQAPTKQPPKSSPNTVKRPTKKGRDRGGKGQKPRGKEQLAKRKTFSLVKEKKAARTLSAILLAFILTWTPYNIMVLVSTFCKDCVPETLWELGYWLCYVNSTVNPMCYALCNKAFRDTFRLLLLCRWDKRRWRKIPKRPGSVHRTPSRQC

Target: Muscarinic acetylcholine receptor M1 (Rattus norvegicus, UniProt P08482)

Ki: 600 nM
Structure (SMILES): COc1ccccc1CNCCCCCCNCCCCCCCCNCCCCCCNCc1ccccc1OC [METHOCTRAMINE]
